Key:
[1] = molecular target: GST-Rab11 S25N (human) (UniProt P62491); assay: pull-down; GST-Rab11 proteins immobilized on glutathione-Sepharose beads; lysates of cells expressing GFP-SPIN90 in buffer B (25 mM HEPES, 100 mM NaCl, 5 mM MgCl2, 1% NP-40, 10% glycerol); 2 h at 4 °C; immunoblot with anti-GFP
[2] = molecular target: GST-Rab11 Q70L (human) (UniProt P62491); assay: as above
[3] = molecular target: Rab11 (human (endogenous in HeLa)) (UniProt P62491); assay: proximity ligation; Duolink PLA in fixed, permeabilized HeLa cells (shControl; shSPIN90 knock-down as control); mouse anti-SPIN90 and rabbit anti-Rab11; puncta counted in each cell

Substance	relative band intensity (normalized to GST-Rab11 WT with SPIN90 FL) [1]	relative band intensity (normalized to GST-Rab11 WT with SPIN90 FL) [2]	PLA puncta number per cell (puncta per cell) [3]
GFP-SPIN90 full-length (FL) (from UniProt Q9NZQ3 1-722) (natural protein)	2.11	0.93	–
SH3 protein interacting with Nck, 90 kDa (SPIN90) (from UniProt Q9NZQ3 1-722) (natural protein)	–	–	20.2

Reference: article PMC9504172
